Among the data in PubChem BioAssay AID1379 (National Center for Advancing Translational Sciences (NCATS), 2008) are activity change, negative = inhibition values, retold here.

Structures are written as SMILES. The entries are a selection whose mix differs from that of the whole data set. Activity calls are given as the source filed them. Calls follow the shape of the dose curve; as a rule, active = well fitted inhibition curve with a large enough effect; inconclusive = small, poorly fitted or top-dose-only effect; inactive = flat fitted curve, though single readings scatter.
% is scaled to controls: 0 for no effect and ±100 for the full control effect.

This assay deals with Luciferin 4-monooxygenase (Photuris pensylvanica) (UniProt Q27757). Briefly: Counterscreen for Luciferase (Kinase-Glo TM) Inhibition. Also: nearly all actives have a fitted effect of over 60% in size. Particulars: ATP luminescence, 8 min; at 38.3 µM (top of the series). As for the experimental part: NCGC Assay Overview: NIH Molecular Libraries Screening Centers Network [MLSCN] NIH Chemical Genomics Center [NCGC] MLSCN Grant: None Luciferase (Kinase-Glo, Promega Corporation) was assayed for its ability to generate light using ATP and luciferin as substrates. The ATP concentration in the assay (10 uM) was within the linear range of enzyme activity for the assay conditions used.
NCGC Assay Protocol Summary: Four uL of substrate mix (final concentration, 50 mM imidazole pH 7.2, 50 mM KCl, 7 mM MgCl2, 10 uM ATP, 0.01% Tween 20, 0.05% BSA) was dispensed into white 1536 well plates. Twenty-three nL of compound was delivered by a pin tool and 2 uL of luciferase detection mix (Kinase-Glo, Promega)) was added. Following 8-minute incubation at ambient temperature, luminescence was measured by a ViewLux (Perkin Elmer) at 5 seconds exposure/plate.
`CN(CCCl)CCCl`: the activity change, negative = inhibition is inactive: 0.299%.
